The test system of this series is 2% red blood cell suspension. Details: Hemolysis test result: key to the marks not given beside the values. The conditions noted are these: for Hemolysis test result: test tube 7 (+), 2.5 ml distilled water.

Where two headings read alike, the source gives them in different places.

With Distilled water, the Hemolysis test result is “+++” (incubated at 37° C. for 15 min); “+++” (incubated at 37° C. for 30 min); “+++” (incubated at 37° C. for 45 min); “+++” (incubated at 37° C. for 1.0 hr); “+++” (incubated at 37° C. for 2.0 hrs); “+++” (incubated at 37° C. for 3.0 hrs). Also, the Hemolysis test result (incubated at 37° C. for 4.0 hrs) is on record as “+++”. For the same substance, the “Hemolysis on addition of distilled water (in words)” value (test tube No. 7) is “Hemolysis occurs immediately”.
